# Results from ChEMBL document CHEMBL2321829, “3-Amido pyrrolopyrazine JAK kinase inhibitors: development of a JAK3 vs JAK1 selective inhibitor and evaluation in cellular and in vivo models” (J Med Chem, 2013).
# pIC50: −log10 of the molar value.
# Key:
# JAK3/JAK1 [1] = target: T1, JAK3/JAK1 (Homo sapiens, UniProt P23458+P52333); type: protein-complex assay
# JAK3/JAK1 [2] = target: T1, JAK3/JAK1; type: tissue-based, Blood
# [3] = target: T2, Tyrosine-protein kinase JAK3 (Homo sapiens, UniProt P52333)
# T2 sequence (P52333 whole entry): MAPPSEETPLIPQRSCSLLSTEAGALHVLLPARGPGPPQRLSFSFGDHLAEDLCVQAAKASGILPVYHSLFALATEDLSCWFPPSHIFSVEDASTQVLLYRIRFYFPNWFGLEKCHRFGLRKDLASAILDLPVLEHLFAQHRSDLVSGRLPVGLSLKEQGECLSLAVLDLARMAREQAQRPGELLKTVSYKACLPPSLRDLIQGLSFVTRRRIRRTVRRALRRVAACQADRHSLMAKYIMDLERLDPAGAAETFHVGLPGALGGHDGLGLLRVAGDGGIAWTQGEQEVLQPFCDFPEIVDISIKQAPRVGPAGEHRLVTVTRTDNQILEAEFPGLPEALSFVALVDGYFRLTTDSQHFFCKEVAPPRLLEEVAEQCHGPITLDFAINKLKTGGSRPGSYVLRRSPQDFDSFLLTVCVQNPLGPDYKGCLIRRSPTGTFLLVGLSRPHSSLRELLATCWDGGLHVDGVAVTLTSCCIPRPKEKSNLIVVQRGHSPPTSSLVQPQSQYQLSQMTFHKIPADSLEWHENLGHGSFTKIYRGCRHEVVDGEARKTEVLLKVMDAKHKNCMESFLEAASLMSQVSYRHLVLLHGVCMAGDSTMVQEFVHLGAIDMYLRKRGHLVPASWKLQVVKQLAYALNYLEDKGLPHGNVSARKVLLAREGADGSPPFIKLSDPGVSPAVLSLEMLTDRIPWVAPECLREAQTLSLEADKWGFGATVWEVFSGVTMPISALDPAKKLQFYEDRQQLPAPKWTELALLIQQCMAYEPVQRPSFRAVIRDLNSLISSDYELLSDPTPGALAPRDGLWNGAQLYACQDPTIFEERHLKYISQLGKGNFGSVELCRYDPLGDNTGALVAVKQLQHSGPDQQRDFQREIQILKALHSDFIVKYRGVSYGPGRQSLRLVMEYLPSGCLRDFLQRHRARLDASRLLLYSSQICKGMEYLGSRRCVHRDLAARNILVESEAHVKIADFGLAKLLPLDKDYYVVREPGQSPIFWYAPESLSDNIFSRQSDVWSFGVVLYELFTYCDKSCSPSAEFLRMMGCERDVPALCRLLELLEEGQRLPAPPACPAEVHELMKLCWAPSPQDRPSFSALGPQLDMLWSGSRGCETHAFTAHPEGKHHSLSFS
Compound,pIC50 (JAK3/JAK1 [1]),pIC50 (JAK3/JAK1 [2]),pIC50 [3]
C[C@@H](NC(=O)c1c[nH]c2ncc(C3CC3)nc12)C(=O)N1CC(C#N)C1,6.48,6.09,8.09
N#C[C@H]1CCN(C(=O)[C@H](NC(=O)c2c[nH]c3ncc(C4CC4)nc23)C2CC2)C1,7.55,5.94,9.36
C[C@H](NC(=O)c1c[nH]c2ncc(C3CC3)nc12)C(C)(C)O,5.65,4.80,7.77

# The next lines start with the values.
pIC50 (JAK3/JAK1 [1]),pIC50 (JAK3/JAK1 [2]),pIC50 [3],Compound
–,–,> 9.52,N#C[C@@H]1CCN(C(=O)[C@H](NC(=O)c2c[nH]c3ncc(C4CC4)nc23)C2CC2)C1
–,–,7.35,CC(C)NC(=O)c1c[nH]c2ncc(C3CC3)nc12
–,–,7.31,C[C@@H](NC(=O)c1c[nH]c2ncc(C3CC3)nc12)C(=O)N1CCCC1
